We go through one compound from ChEMBL document CHEMBL4257227, “Deubiquitinase inhibitors and methods for use of the same” (2016).

The chains behind the UniProt entries cited, without tags or fusion partners.
UniProt Q93009, whole entry, looked up: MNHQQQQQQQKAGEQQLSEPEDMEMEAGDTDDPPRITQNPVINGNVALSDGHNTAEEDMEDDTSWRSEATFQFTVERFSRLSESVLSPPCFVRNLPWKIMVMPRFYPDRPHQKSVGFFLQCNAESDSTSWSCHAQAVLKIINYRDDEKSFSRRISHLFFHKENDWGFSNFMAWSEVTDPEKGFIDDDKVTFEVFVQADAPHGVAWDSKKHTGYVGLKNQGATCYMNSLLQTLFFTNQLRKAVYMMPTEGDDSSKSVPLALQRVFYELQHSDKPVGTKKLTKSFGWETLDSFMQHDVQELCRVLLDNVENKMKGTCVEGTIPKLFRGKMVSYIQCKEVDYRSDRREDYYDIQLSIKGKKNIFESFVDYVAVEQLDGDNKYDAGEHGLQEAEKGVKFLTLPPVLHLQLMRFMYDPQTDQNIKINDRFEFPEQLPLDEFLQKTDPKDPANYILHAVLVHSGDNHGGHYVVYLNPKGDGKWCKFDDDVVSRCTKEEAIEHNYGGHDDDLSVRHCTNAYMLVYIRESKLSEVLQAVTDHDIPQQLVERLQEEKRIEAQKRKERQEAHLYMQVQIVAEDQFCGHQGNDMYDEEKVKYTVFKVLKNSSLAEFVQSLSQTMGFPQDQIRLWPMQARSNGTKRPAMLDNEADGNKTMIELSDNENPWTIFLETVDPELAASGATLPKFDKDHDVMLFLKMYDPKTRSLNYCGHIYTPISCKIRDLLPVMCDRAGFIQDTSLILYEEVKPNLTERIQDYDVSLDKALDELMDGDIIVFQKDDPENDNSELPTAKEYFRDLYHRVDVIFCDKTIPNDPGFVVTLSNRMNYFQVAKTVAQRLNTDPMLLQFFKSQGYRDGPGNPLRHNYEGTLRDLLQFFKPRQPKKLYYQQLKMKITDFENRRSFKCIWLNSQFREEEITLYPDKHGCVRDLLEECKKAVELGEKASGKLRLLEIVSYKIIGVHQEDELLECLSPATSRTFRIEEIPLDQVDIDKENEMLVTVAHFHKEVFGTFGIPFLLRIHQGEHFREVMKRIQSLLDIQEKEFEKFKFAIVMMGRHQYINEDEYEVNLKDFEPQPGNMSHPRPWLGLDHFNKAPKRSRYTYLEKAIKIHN

Common to all, as to format: cell-based
For test [1], the target named is T1, Ubiquitin carboxyl-terminal hydrolase 5 (Homo sapiens) (UniProt P45974).
T1 sequence (whole entry): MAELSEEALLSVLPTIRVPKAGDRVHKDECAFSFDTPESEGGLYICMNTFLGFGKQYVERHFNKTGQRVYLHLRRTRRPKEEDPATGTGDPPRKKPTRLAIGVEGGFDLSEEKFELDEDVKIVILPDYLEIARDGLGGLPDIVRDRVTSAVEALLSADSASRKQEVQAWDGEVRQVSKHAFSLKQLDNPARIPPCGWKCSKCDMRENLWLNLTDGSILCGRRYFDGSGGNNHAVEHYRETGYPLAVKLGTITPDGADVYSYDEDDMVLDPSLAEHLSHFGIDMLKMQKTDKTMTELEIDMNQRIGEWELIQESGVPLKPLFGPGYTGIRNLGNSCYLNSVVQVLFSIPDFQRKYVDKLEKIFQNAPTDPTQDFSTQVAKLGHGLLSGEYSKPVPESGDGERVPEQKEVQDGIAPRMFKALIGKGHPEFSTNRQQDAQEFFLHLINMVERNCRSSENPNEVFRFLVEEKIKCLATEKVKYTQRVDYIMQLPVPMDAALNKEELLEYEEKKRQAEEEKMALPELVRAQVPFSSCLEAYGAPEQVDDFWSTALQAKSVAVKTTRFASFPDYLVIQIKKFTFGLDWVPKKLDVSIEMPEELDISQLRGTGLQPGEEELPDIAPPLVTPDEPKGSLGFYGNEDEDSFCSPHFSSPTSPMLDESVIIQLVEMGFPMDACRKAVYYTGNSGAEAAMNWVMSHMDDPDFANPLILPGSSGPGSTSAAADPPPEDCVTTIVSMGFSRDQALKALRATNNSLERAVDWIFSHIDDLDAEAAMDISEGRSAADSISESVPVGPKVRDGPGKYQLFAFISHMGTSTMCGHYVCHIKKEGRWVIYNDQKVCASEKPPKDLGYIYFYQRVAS
Nature of the test: Inhibition of USP5 in human SK-MEL-28 cells by LC/MS/MS analysis.

The target of test [2] is T1, Ubiquitin carboxyl-terminal hydrolase 5 (Homo sapiens). Kind of test: Inhibition of USP5 in human A375 cells by LC/MS/MS analysis.
Test [3] has the same target. Nature of the test: Inhibition of USP5 in human SK-MEL-28 cells by direct immunoblotting method.
Test [4] shares this target. Nature of the test: Inhibition of USP5 in human A375 cells by direct immunoblotting method. (In western blotting, separated proteins are transferred to a membrane and probed.)
The target of test [5] is Ubiquitin carboxyl-terminal hydrolase 7 (Homo sapiens) (UniProt Q93009). Nature of the test: Inhibition of USP7 in human SK-MEL-28 cells.
The target is the same in test [6]. Kind of test: Inhibition of USP7 in human A375 cells.

The source made the active and inactive calls. The calls are words filed in the database; no cut-off is given here.

In the case of `CCCS(=O)(=O)Nc1ccc(F)c(C(=O)c2c[nH]c3ncc(-c4ccc(Cl)cc4)cc23)c1F` [VEMURAFENIB], the inhibition result in test [1], in test [2], in test [3] and in test [4] was “Active” each time. For the same compound, the inhibition result in test [5] and in test [6] was “inactive” throughout.
